Only a part is listed here, and it is no random draw. The source made the active and inactive calls. No stated cut-off is given here; in the data, active means activation above about 2.2%; inactive means the rest.

A short description of the experiment: agonists of NOTCH signaling (AID 434982). Particulars: NOTCH signaling luciferase reporter cells, luminescence; at 2.5 µM; stronger effect = higher value. On the technique in general: In a reporter assay the amount or activity of a reporter protein is the signal.
For `O=C(OC1CN2CCC1CC2)c1cccc([N+](=O)[O-])c1` (configuration not stated), the activation was inactive: -0.25%.
To `CCOC(=O)/C(=N/Nc1ccc([N+](=O)[O-])cc1)N1CC1` belongs inactive: 0.06%.

Values taken from PubChem BioAssay AID434982 (The Scripps Research Institute Molecular Screening Center, 2010).
